Sequences of proteins named here, by UniProt entry; tags and fusion partners are left off.
UniProt P00742, whole entry: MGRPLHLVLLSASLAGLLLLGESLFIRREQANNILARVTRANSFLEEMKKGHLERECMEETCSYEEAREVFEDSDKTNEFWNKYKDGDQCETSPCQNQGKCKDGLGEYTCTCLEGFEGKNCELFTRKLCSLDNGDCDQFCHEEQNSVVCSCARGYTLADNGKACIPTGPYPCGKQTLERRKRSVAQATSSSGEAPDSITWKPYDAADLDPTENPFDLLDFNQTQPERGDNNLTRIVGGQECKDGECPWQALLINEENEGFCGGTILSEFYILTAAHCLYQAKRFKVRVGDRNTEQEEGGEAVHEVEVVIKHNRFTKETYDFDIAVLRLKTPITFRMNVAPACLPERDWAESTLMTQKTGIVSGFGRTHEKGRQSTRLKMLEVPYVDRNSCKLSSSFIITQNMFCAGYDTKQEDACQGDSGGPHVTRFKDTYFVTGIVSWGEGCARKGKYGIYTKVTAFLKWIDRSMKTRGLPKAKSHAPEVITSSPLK

In ChEMBL document CHEMBL4000206, “An efficient anticoagulant candidate: Characterization, synthesis and in vivo study of a fondaparinux analogue Rrt1.17” (Eur J Med Chem, 2017):

Target: Coagulation factor X (Homo sapiens, UniProt P00742)
Test: Inhibition of factor 10a (unknown origin) using S-2765 as substrate assessed as compound potency preincubated with AT-3 followed by factor 10a addition for 60 secs and subsequent addition of substrate for 60 secs measured after 4 mins

SMILES: CC.O=C(O)[C@H]1O[C@@H](O[C@H]2[C@H](OS(=O)(=O)O)[C@@H](NS(=O)(=O)O)[C@H](O[C@H]3[C@H](O)[C@@H](OS(=O)(=O)O)[C@H](O[C@@H]4[C@H](O)[C@@H](CO)O[C@@H]4CS(=O)(=O)O)O[C@H]3C(=O)O)O[C@@H]2COS(=O)(=O)O)[C@H](O)[C@@H](O)[C@@H]1O[C@H]1O[C@H](COS(=O)(=O)O)[C@@H](O)[C@H](O)[C@H]1NS(=O)(=O)O
- INH: 135 IU/mg
